Drawing on ChEMBL document CHEMBL5584349, this text covers Activity for four compounds.

Calls of active or inactive are those of the source. No cut-off for these calls is given here.

Data set [1] has as its system HepG2. Put plainly: Cytotoxicity in human HepG2 cells assessed as effect on nuclear size upto 40 uM incubated for 72 hrs by high content toxicological analysis. The class given is toxicity, cell-based. The conditions noted are these: hepg2, 72 h.
Data set [2] relates to HepG2. Put plainly: Cytotoxicity in human HepG2 cells assessed as effect on cytochrome C release upto 40 uM incubated for 72 hrs by high content toxicological analysis. The format is toxicity, cell-based. The conditions noted are these: hepg2, 72 h.
For data set [3], the system named is HepG2. Put plainly: Cytotoxicity in human HepG2 cells assessed as effect on mitochondrial membrane potential upto 40 uM incubated for 72 hrs by high content toxicological analysis. The format is toxicity, cell-based. The conditions noted are these: hepg2, 72 h.
Data set [4] concerns HepG2. Kind of data set: Cytotoxicity in human HepG2 cells assessed as effect on mitochondrial mass upto 40 uM incubated for 72 hrs by high content toxicological analysis. The format is toxicity, cell-based. The settings on record: hepg2, 72 h.
For data set [5], the system named is HepG2. Kind of data set: Cytotoxicity in human HepG2 cells assessed as effect on cell membrane permeability upto 40 uM incubated for 72 hrs by high content toxicological analysis. The format is toxicity, cell-based. The conditions noted are these: hepg2, 72 h.
Data set [6] deals with HepG2. Kind of data set: Cytotoxicity in human HepG2 cells assessed as effect on cell growth upto 40 uM incubated for 72 hrs by high content toxicological analysis. The conditions noted are these: hepg2, 72 h. The class given is toxicity, cell-based.
Data set [7] has as its system HepG2. Kind of data set: Cytotoxicity in human HepG2 cells assessed as effect on DNA structure upto 40 uM incubated for 72 hrs by high content toxicological analysis. The settings on record: hepg2, 72 h. The format is toxicity, cell-based.
Data set [8] in a line: Cytotoxicity against non-cycling human PBMC cells at 0.2 to 100 nM measured after 72 hrs by CellTiter-Blue assay. The conditions noted are these: 0.1 µM, dose 0.2-100 nM. The class given is toxicity, cell-based. A general note: The colour change of resazurin is a common sign of viable cells or microbes.
Data set [9] concerns Jurkat. Put plainly: Antitumor activity against human Jurkat cells xenografted in female NSG mouse assessed as reduction in tumor growth at 20 mg/kg, po administered daily for 26 days. The class given is functional, organism-based. The conditions noted are these: time 26.0 day.
A short description of data set [10]: Toxicity in female NSG mouse xenografted with human Jurkat cells assessed as effect on reticulocyte count at 100 to 150 mg/kg, po administered daily for 26 days. The class given is organism-based. The settings on record: in vivo, 624 h, dose 100-150 mg/kg, time 26 day.
A short description of data set [11]: Toxicity in female NSG mouse assessed as adverse events at 50 to 150 mg/kg, po administered once a day for 7 days and measured after 7 days. The class given is organism-based. The settings on record: in vivo, 336 h, dose 50-150 mg/kg, time 14 day.
Data set [12] can be described thus: Toxicity in female NSG mouse xenografted with human Jurkat cells assessed as body weight loss at 100 to 150 mg/kg, po administered daily for 26 days. The class given is organism-based. The conditions noted are these: in vivo, 624 h, dose 100-150 mg/kg, time 26 day. (In general: A xenograft is tissue or cells of one species grown in another, often human tumour cells in immunodeficient mice.)

Data set [13] deals with Jurkat. Put plainly: Antitumor activity against human Jurkat cells xenografted in female NSG mouse assessed as reduction in tumor growth at 100 to 150 mg/kg, po administered daily for 26 days. The format is functional, organism-based. The conditions noted are these: dose 100-150 mg/kg, time 26.0 day.
Data set [14] can be described thus: Toxicity in female NSG mouse assessed as body weight loss at 50 to 150 mg/kg, po administered once a day for 7 days and measured after 7 days. The conditions noted are these: in vivo, 336 h, dose 50-150 mg/kg, time 14 day. The class given is organism-based.
The next data set concerns PANC-1. Kind of data set: Synergistic antitumor activity against human PANC-1 cells incubated for 72 hrs in presence of paclitaxel. The class given is functional, cell-based.

Turning to `Cc1c(C(=O)NS(=O)(=O)C2CC2)cc(-c2ccc(Cl)cc2)c2cc[nH]c12`, the Activity result with HepG2 [1], with HepG2 [2], in the data set on HepG2 [3], in the data set with HepG2 [4], in the data set on HepG2 [5] and in the data set with HepG2 [6] was “Non-Toxic” throughout. Moreover, the Activity entry in the data set on HepG2 [7] is “Non-Toxic”.
With `COc1cc(Nc2ncc3c(n2)-c2ccc(Cl)cc2C(c2c(F)cccc2OC)=NC3)ccc1C(=O)O` [ALISERTIB], the Activity entry in data set [8] is “Non-Toxic”. The result with Jurkat [9] was Active.
For the compound `Cc1c(C(=O)NS(=O)(=O)N(C)C)cc(-c2ccc(Cl)c(Oc3ccccn3)c2)c2cc[nH]c12`, the Activity result in data set [10] is “Toxic”; in data set [11] it was “Non-Toxic”; in data set [12] it was “Non-Toxic”; in data set [14], “Non-Toxic”. Further, the result in the data set on Jurkat [13] was Active.
In the case of `Cc1c(C(=O)O)cc(-c2ccc(Cl)c(C#N)c2)c2cc[nH]c12`, the outcome in the data set with PANC-1 was Active.
